Data taken from publication PMC7879625, “Cell-free oxidized hemoglobin drives reactive oxygen species production and pro-inflammation in an immature primary rat mixed glial cell culture” (Journal of Neuroinflammation, 2021).

T1: human haptoglobin (a mixture of isotype 2-2/2-1) (human, UniProt P00738 19-160; P00738-2 19-101; P00738 162-406)
T1 construct: haptoglobin alpha-2 chain, human; cut product of the haptoglobin precursor (Hp2 allele), present in phenotypes 2-2 and 2-1; haptoglobin alpha-1 chain, human; cut product of the haptoglobin precursor (Hp1 allele), present only in the 2-1 part of the mixture; haptoglobin beta chain, human; cut product of the haptoglobin precursor; A mixture of the polymeric phenotypes 2-2 and 2-1; also called Hp; …
T1 sequence (looked up) 1: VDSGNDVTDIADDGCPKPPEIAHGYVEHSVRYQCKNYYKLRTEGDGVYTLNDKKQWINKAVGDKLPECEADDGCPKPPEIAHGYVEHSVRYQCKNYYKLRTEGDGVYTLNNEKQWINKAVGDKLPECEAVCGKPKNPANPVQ
T1 sequence (looked up) 2: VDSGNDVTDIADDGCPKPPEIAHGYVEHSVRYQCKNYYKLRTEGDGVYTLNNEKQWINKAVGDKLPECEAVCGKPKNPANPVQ
T1 sequence (looked up) 3: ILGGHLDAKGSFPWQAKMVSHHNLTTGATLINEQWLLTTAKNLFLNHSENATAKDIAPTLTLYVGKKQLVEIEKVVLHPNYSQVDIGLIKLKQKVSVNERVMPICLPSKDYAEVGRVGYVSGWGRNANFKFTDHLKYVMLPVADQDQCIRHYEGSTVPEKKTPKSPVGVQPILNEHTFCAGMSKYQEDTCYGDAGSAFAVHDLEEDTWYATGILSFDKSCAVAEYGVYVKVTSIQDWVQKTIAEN


Molecular target: T1, human haptoglobin (a mixture of isotype …)
Experiment: BLI; Hp immobilised on amine-reactive biosensors in acetate buffer (pH 5.0) for 600 s, Octet Red 96; oxyHb or metHb twofold serially diluted (0-30 nM); global 1:1 kinetic model; three independent experiments
Settings: both partners purified

Row | Kd | koff | kon | Binder
1 | 0.141 nM | 2.8e-05 s⁻¹ | 200000 M⁻¹ s⁻¹ | human methemoglobin (ferric hemoglobin, Fe3+) (complex) chain 1: not shown chain 2: not shown
2 | 0.129 nM | 3.5e-05 s⁻¹ | 270000 M⁻¹ s⁻¹ | human oxyhemoglobin (ferrous hemoglobin, Fe2+) (complex) chain 1: not shown chain 2: not shown
